From patent US20260250410A1, “ANTIBODY AND USE THEREOF” (SICHUAN HUIYU PHARMACEUTICAL CO., LTD., priority 2022, published 2026)

System: MDA-MB-231 cells
Test: Endocytosis capacity of single B cell antibodies
Assay type: cell-based, human
Settings: MDA-MB-231, 2 h at 37° C., antibody 1.5 μg/mL
Method: The endocytosis capacity of the antibody was detected for 0.5 to 2 hours. MDA-MB-231 cells were subjected to digestion with 5 mM EDTA, and plated at 2×10^4 cells/well after cell counting. After adding an Fc blocker (Human TruStain FcX™, Biolegend, 422302) and blocking at room temperature for 10 mins, a test antibody (1.5 μg/mL) was added, and the mixture was incubated at 4° C. for 30 mins, centrifuged, and washed twice with PBS+2% FBS, then the cells were divided into four equal portions (labeled as 0 h, 0.5 h, 1 h, 2 h), cells labeled as 0.5 h, 1 h, 2 h time points were added to 200 μL of cell culture medium, and cultured at 37° C. for 0.5 h, 1 h, 2 h, respectively. Cells at 0 h point were centrifuged, a secondary antibody (PE anti-human IgG Fc Antibody, Biolegend, 410708) was added, and the mixture was incubated at 4° C. for 30 mins, centrifuged, and washed twice with PBS+2% FBS, and detection was performed using a flow cytometer. After incubation of cells labeled as 0.5 h, 1 h, and 2 h points at 37° C. was completed, a secondary antibody was added (in the same steps as those at 0 h point), Geo-MFI of the signal under the same voltage was collected as detection signal at 0 h, and antibody internalization rate was calculated according to the following equation: Internalization (%)=(Geo-MFI (0 h)-Geo-MFI (2 h))/Geo-MFI (0 h)×100%.

B1: SB14: anti-CDCP1 antibody by single B cell technique; VH SEQ ID NO: 284, VL SEQ ID NO: 334 (antibody, V domains shown)
VH: QVQLQQSGNEVVKPGASVKLSCKTSGYTFTNYWLQWVKQRPGQGLEWIGEIFPGTGTTYYNEKFKDQATVTIDTSSSTAYIHLSSLTSEDSAVYFCARTNWEGYYFDYWGQGTTLTVSS
VL: ENVLTQSPAIMSASSGEKVTMTCRASSSVRSSYLHWYQQKSGASPKVWIYSTSNLASGVPVRFSGSGSGTSYSLTISSVEAEDAATYYCQQYSGSPSWTFGGGTKLEIK
modifications: SB14 heavy chain variable region; SB14 light chain variable region
For B1, the “Internalization MDA-MB-231 (%)” value was 80.03%.

B2: SB11: anti-CDCP1 antibody by single B cell technique; VH SEQ ID NO: 281, VL SEQ ID NO: 331 (antibody, V domains shown)
VH: EVQLQQSGAELVKPGASVKLSCTASGFNIQDTYILWVKQRPEQGLEWIGGIDPANDNTNYGPNFQGKATITADTSSNTAYLQLSSLTSEDSAVYYCAREDAYPWFAYWGQGTLVTVSS
VL: DIVLTQSPASLAVSLGQRATISCRASQSVSTSSYSYMHWYQLKPGQPPKLLIKYASNLESGVPARFSGSGSGTDFTLNIHPVEEEDAAIYYCQHNWEIPWTFGGGTRLEIK
modifications: SB11 heavy chain variable region; SB11 light chain variable region
With B2 the “Internalization MDA-MB-231 (%)” value was 18.52%.

B3: SB13: anti-CDCP1 antibody by single B cell technique; VH SEQ ID NO: 283, VL SEQ ID NO: 333 (antibody, V domains shown)
VH: EVKLVESGGGLVQPGGSLRLSCATSGFTFSDFYMEWVRQPPGKRLEWIAVSRDKTNDYTTEYSASMKGRFIVSRDTSQSILYLQMNALRAEDTAIYYCARDGVYYYGSSYTLDYWGQGTSVTVSS
VL: DIVMTQSHKFMSTSVGDRVSITCKASQDVSSSVAWYQQKPGQSPKLLIYWASTRHTGVPDRFTGSGSGTDYTLTISSVQAEDLALYYCQQHYNTPPTFGGGTKLEIK
modifications: SB13 heavy chain variable region; SB13 light chain variable region
B3 was tested, and the “Internalization MDA-MB-231 (%)” value was 50.12%.

B4: SB10: anti-CDCP1 antibody by single B cell technique; VH SEQ ID NO: 280, VL SEQ ID NO: 330 (antibody, V domains shown)
VH: QVTLKESGPGILQPSQTLSLTCSFSGFSLSTSGMGVSWFRQPSGKGLEWLAHIYWDDDKRYNPSLKSRLTISKDTSSNQVFLRITNVDTSDTATYYCTREGSADWEALDYWGQGTSVTVSS
VL: DVLMTQTPLSLSVSLGDQASISCRSSQTIVYSNGNSYLEWYLQKPGQSPKLLIYKVSNRFSGIPDRFSGSGSGTDFTLKISRVEAEDLGIYYCFQSSHVPWTFGGGTKLEIK
modifications: SB10 heavy chain variable region; SB10 light chain variable region
In the case of B4, the “Internalization MDA-MB-231 (%)” value is reported as 87.72%.

B5: SB15: anti-CDCP1 antibody by single B cell technique; VH SEQ ID NO: 285, VL SEQ ID NO: 335 (antibody, V domains shown)
VH: EVKLVESGGGLVKPGGSLKLSCAASGFTFSSYGMSWVRQTPEKRLEWVATISGGINYTYYRDSVEGRFTISRDNAKNNLYLQMSRLRSEDTALYYCARHDRYDGYYYVMDYWGQGTSVTVSS
VL: DIQMTQSPSSLSASLGERVSLTCRASQEISGYLTWLQQRPDGTIKRLIYAASTLDSGVPKRFSGSRSGSDYSLTISSLESEDFADYYCLQYASYPYTFGGGTKLEIK
modifications: SB15 heavy chain variable region; SB15 light chain variable region
With B5 the “Internalization MDA-MB-231 (%)” value was 80.12%.

B6: SB18: anti-CDCP1 antibody by single B cell technique; VH SEQ ID NO: 288, VL SEQ ID NO: 338 (antibody, V domains shown)
VH: QVTLKESGPGILQPSQTLSLTCSFSGFSLTTSGMNVGWLRQPSGKGLEWLAHIWWNDDKHSNPVLKSRLTISKDTSNNQAFLKIANVVTADSATYYCARLRDGGFAYWGQGTLVTVSA
VL: DIQMTQTTSSLSASLGDRVTISCSASQAISNYLNWYQQKPDGTVKLLIYYTSHLHSGVPSRFSGSGSGTDYSLTISNLEPEDIATYYCQQYSKIPWTFGGGTKLEII
modifications: SB18 heavy chain variable region; SB18 light chain variable region
In the case of B6, the “Internalization MDA-MB-231 (%)” value is reported as 38.83%.

B7: SB17: anti-CDCP1 antibody by single B cell technique; VH SEQ ID NO: 287, VL SEQ ID NO: 337 (antibody, V domains shown)
VH: QVTLKESGPGILQPSQTLSLTCSFSGFSLSTSGMSVGWIRQPSGKGLEWLAHIWWNDDKYYNPALKTRLTISKDSSNNQIFLKIASVVTADSATYYCARIGYYYGTYALDYWGPGTSVTVSS
VL: QIVLTQSPALMTASPGEQVTMTCSASSSVSYIHWYQQKSGTSPKRWIYDASKLASGVPARFSGSGSGTSYSLTISSMEAEDAATYYCQQWSSYPLTFGGGTKLELK
modifications: SB17 heavy chain variable region; SB17 light chain variable region
In the case of B7, the “Internalization MDA-MB-231 (%)” value is reported as 80.07%.
